Results from patent US20200236933A1, “USE OF A NON-IONIC SURFACTANT WHICH IS A POLYOL DERIVATIVE AS A PLANT GROWTH STIMULATING AGENT OR AS AN ADJUVANT” (priority 2017, published 2020).

How the values were obtained:
[1] = 5% sunflower oil in 2.5% solution; 45° C. 24 h and centrifugation 20 min 4000 rpm
[2] = 3% in water or sunflower oil; centrifuged 5 min at 4000 rpm
[3] = pH modification of the mixture; type: physicochemical; details: 0.5% of the 2.5% sucrose stearate solution added to a solution at pH 9.4

number of phases of the mixture [1]: only one phase | miscibility [2]: miscible with water and also with oil | pH [3]: 6.33
Substance: sucrose stearate
